The list shows a part of the results, in another mix than the full data. The source made the active and inactive calls. Cut-off read from the data, not from the text of the source: active = inhibition above about 38%; inactive = the rest.
molecular target: G-protein coupled receptor 183 (Homo sapiens) (UniProt P32249); assay: EBI2 receptor antagonists, beta-arrestin recruitment, primary screen, cell-based, luminescence, 7a,25-OHC stimulation, uHTS (AID 651636); details: 7a,25-OHC stimulated, at 5 µM, hits give high values;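 note: enzyme fragment complementation signal reports receptor beta-arrestin coupling in cells; 0% = agonist plus DMSO wells and 100% = wells without agonist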

The chains behind the UniProt entries cited, without tags or fusion partners.
UniProt P32249, whole entry, looked up: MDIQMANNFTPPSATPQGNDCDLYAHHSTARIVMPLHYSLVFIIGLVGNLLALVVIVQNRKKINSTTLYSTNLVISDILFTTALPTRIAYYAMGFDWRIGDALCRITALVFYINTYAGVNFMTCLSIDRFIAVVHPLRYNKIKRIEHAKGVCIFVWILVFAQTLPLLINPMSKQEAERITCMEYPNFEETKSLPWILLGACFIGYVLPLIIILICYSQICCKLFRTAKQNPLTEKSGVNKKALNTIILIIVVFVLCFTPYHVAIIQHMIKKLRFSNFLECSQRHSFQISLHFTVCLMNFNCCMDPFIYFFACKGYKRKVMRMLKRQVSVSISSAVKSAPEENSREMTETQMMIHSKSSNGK

SMILES	inhibition
Cc1ccc2nc3c(c(C)c2c1)CC(C(Cl)Cl)S3 (centres undefined)	inactive: -1.95%
Cc1ccc(OP(=O)(Nc2ccc([N+](=O)[O-])cn2)Oc2ccc(C)cc2)cc1	inactive: 11.4%
[N-]=[N+]=NC1CCCCC1NC(=O)c1cc([N+](=O)[O-])cc([N+](=O)[O-])c1 (centres undefined)	inactive: -21.1%
O=[N+]([O-])c1ccc(-c2cc([N+](=O)[O-])c(O)c([N+](=O)[O-])c2)cc1	inactive: -10.7%
COc1cc(C(=O)NCC2(N3CCOCC3)CCCCC2)ccc1OCC(C)C	inactive: 37.7%
C[As](=O)(O)c1cccc(C(=O)O)c1	inactive: -6.29%
O=[As](O)(c1ccc(O)cc1)c1ccccc1O	inactive: -1.55%
COc1ccc(N/C(=N/P(=O)(N2CCOCC2)N2CCOCC2)N2CCOCC2)cc1	inactive: -2.6%
O=[N+]([O-])c1cc(Oc2ccc([N+](=O)[O-])cc2C(F)(F)F)cc([N+](=O)[O-])c1	inactive: -35.6%
COc1cc(I)ccc1[As](=O)(O)O	inactive: -4.64%
COc1ccc2nc(NP(=O)(c3ccccc3)c3ccccc3)sc2c1	inactive: 1.5%
O=P1(N(CCCl)CCCl)OCCCN1CCCl (centres undefined)	inactive: 1.12%
O=P1(N(CCCl)CCCl)Nc2ccccc2N1	inactive: -11.5%
Cc1cc(=O)[nH]c(N[N+](=O)[O-])n1	inactive: 2.41%
O=C(OC1CN2CCC1CC2)C12CC3CC(CC(C3)C1)C2 (centres undefined)	inactive: -5.93%
Cc1c2c(nc3ccccc13)SC(C(Cl)Cl)C2 (centres undefined)	inactive: -5.04%
CCC(C)N(CC(C)C)C(=S)SC(NC(C)=O)C(Cl)(Cl)Cl (centres undefined)	inactive: -0.665%
CCOC(=O)c1ccc(NC(=O)C(C)(CCl)SC)cc1 (centres undefined)	inactive: -2.08%
CSc1ccc(Nc2c([N+](=O)[O-])cc([N+](=O)[O-])cc2[N+](=O)[O-])cc1	inactive: 3.77%
O=C(OC1CN2CCC1CC2)c1cccc([N+](=O)[O-])c1 (centres undefined)	inactive: -6%
O=C(Nc1ccncc1[N+](=O)[O-])c1ccc([N+](=O)[O-])cc1[N+](=O)[O-]	inactive: -3.36%
O=C(COc1ccccc1)OC1CN2CCC1CC2 (centres undefined)	inactive: -6.37%
O=C(O)C(=O)c1ccc(N(CCCl)CCCl)cc1	inactive: 0.0548%
COC(=O)C1(C)COP(=O)(N2CCCC2)OC1 (centres undefined)	inactive: 3.44%
COP1(=S)c2c(C)nn(CCC#N)c2N=C(c2ccc(F)cc2)N1C (centres undefined)	inactive: 8.73%

SMILES	inhibition
O=[N+]([O-])c1ccc(Nc2ccc(Oc3ccc([N+](=O)[O-])cc3[N+](=O)[O-])cc2)c([N+](=O)[O-])c1	inactive: 9.52%
Cc1cc(SC(NC=O)C(Cl)(Cl)Cl)ncn1 (centres undefined)	inactive: -19.1%
O=P(Nc1ccccn1)(c1cccc2ccccc12)c1cccc2ccccc12	inactive: 2.86%
CCOC(=O)Nc1cccc([As](=O)(O)O)c1	inactive: -7.47%
Cc1cc(SC(NC(=O)c2ccccc2)C(Cl)(Cl)Cl)nc(C(C)C)n1 (centres undefined)	inactive: -17.1%
CCCCOc1ccc(C(=O)NCC2(N3CCCCC3)CCCCC2)cc1OC	inactive: -1.59%
COP(=O)(OC)N1CC1c1ccccc1 (centres undefined)	inactive: -17.9%
CC1CCNP(=O)(N(CCCl)CCCl)O1 (centres undefined)	inactive: -6.52%
O=C(O)C(O)c1ccc(N(CCCl)CCCl)cc1 (centres undefined)	inactive: 0.13%
CCOC(=O)Nc1ccc([As](=O)(O)O)c(O)c1	inactive: -0.938%
COC(=O)C1(C)COP(=O)(Nc2ccccc2)OC1 (centres undefined)	inactive: -9.18%
O=[N+]([O-])c1cccc(NC2=NCC(CBr)S2)c1 (centres undefined)	inactive: 5.06%
O=C(O)CNc1ccc([As](=O)(O)O)cc1	inactive: 8.37%
CC(C)(C)C(=O)NC(Sc1ccncn1)C(Cl)(Cl)Cl (centres undefined)	inactive: 4.02%
O=[N+]([O-])c1ncn(CCn2ncnc2[N+](=O)[O-])n1	inactive: -6.17%
O=C(Nc1cc([As](=O)(O)O)ccc1O)c1ccccc1	inactive: -12.7%
O=P1(N(CCCl)CCCl)OCCCS1 (centres undefined)	inactive: -2.55%
CN(C)C(=O)OCCc1n(C)cc[n+]1C	inactive: -8.79%
CC(C)c1nc(Nc2ccccc2)n(P(=O)(N(C)C)N(C)C)n1	inactive: 19.9%
CC(C)=N/N=C(\N)N[N+](=O)[O-]	inactive: 0.148%
CC1CCN(C(=O)Oc2c(Cl)cc(Cl)c3cccnc23)CC1	inactive: -1.32%
c1cc(-c2nn[nH]n2)ccc1-c1nn[nH]n1	inactive: 4.13%
C[N+]1=C2C=CC=CC=C2SC12C([N+](=O)[O-])=CC([N+](=O)[O-])=C[C-]2[N+](=O)[O-] (centres undefined)	inactive: 32.9%
Nc1ccc([As](=O)(O)c2ccc(N)cc2)cc1	inactive: 9.9%
CCN(/C(=N/P(=O)(N1CCOCC1)N1CCOCC1)N1CCOCC1)c1ccc(OC)cc1	inactive: -0.304%

SMILES	inhibition
CC(=O)N1C2C3N(C(C)=O)C1C1N(C(C)=O)C(C(N1C(C)=O)N3C(C)=O)N2C(C)=O	inactive: -7.7%
O=[N+]([O-])c1cccc2n[nH]nc12	inactive: -9.01%
O=[N+]([O-])c1cc([N+](=O)[O-])c(CCNc2ccccc2)c([N+](=O)[O-])c1	inactive: 3.3%
CCc1nc2c(n1)c1c(non1O)c1c2no[n+]1[O-]	inactive: -9.91%
Cc1ccc(NP(=O)(Oc2ccccc2)Oc2ccccc2)nc1	inactive: -5.99%
COc1ccc(C2=NCC(CBr)S2)cc1 (centres undefined)	inactive: 2.95%
O=[N+]([O-])C1C(O)C(O)C([N+](=O)[O-])C(O)C1O (centres undefined)	inactive: -3.02%
Nc1cc(N)c2nonc2c1[N+](=O)[O-]	inactive: -6.22%
CC(C)CC(=O)NC(Sc1ccc(Cl)cc1)C(Cl)(Cl)Cl (centres undefined)	inactive: 8.9%
O=C(NC(Sc1ccncn1)C(Cl)(Cl)Cl)c1ccccc1 (centres undefined)	inactive: -7.13%
Oc1ccccc1CNc1ccccn1	inactive: -4.72%
Cc1ccc(OP(=O)(Nc2nccs2)Oc2ccc(C)cc2)cc1	inactive: -0.497%
COc1ccccc1OP(=O)(Nc1ccc(C)cn1)Oc1ccccc1OC	inactive: -2.5%
CN1CCCC(OC(=O)C(c2ccccc2)c2ccccc2)C1 (centres undefined)	inactive: -4.71%
Clc1ccc(Cl)c(NC2=NCC(CBr)S2)c1 (centres undefined)	inactive: -9.25%
NC(=O)c1cc([N+](=O)[O-])cc([N+](=O)[O-])c1N	inactive: -2.05%
Cc1ccc(N/C(=N/P(=O)(N2CCOCC2)N2CCOCC2)N2CCOCC2)cc1	inactive: -2.11%
CN(C(=O)Cc1ccc(Cl)c(Cl)c1)[C@H]1CCCC[C@H]1N1CCCC1	inactive: -3.84%
CCN(N=Nc1nonc1N)c1nonc1N	inactive: -14.1%
Nc1cccc2ccc([As](=O)(O)O)cc12	inactive: 3.47%
CN(C(=O)Cc1ccc(Cl)c(Cl)c1)[C@H]1CCCC[C@@H]1N1CCCC1	inactive: 1.23%
Cc1ccc(NP(=O)(Oc2ccccc2F)Oc2ccccc2F)nc1	inactive: -2.49%
Cc1cc(SC(NC(=O)c2ccc(F)cc2)C(Cl)(Cl)Cl)ncn1 (centres undefined)	inactive: -13.6%
CCOP(=O)(Nc1ccccc1)OCC	inactive: -3.98%
CCCC1OP(N)(=O)OCC1CC (centres undefined)	inactive: 3.95%

SMILES	inhibition
CC(=O)Nc1ccc([As](=O)(O)O)cc1	inactive: -2.98%
O=C(O)c1ccccc1[As](=O)(O)O	inactive: 1.5%
O=P(Nc1nc2ccc(Cl)cc2s1)(c1ccccc1)c1ccccc1	inactive: 1.35%
CN(C)P(=O)(N(C)C)n1c(Nc2ccccc2)nnc1-c1ccccc1	inactive: -0.116%
O=c1c2cc([N+](=O)[O-])ccc2[nH]c2c([N+](=O)[O-])cc([N+](=O)[O-])cc12	inactive: 38.5%
CN(C)C(=O)Oc1noc2ccccc12	inactive: 4.27%
CC(NC(=O)COC(=O)C(O)(c1ccccc1)c1ccccc1)c1ccccc1 (centres undefined)	inactive: 9.26%
Cc1ccccc1OP(=O)(Nc1ccccn1)Oc1ccccc1C	inactive: -4.54%
CC(=O)NC(SC(=S)N(CC(C)C)CC(C)C)C(Cl)(Cl)Cl (centres undefined)	inactive: 7.44%
Cc1ccc(OP(=O)(Nc2ccccn2)Oc2ccc(C)cc2)cc1	inactive: -8.65%
COC(=O)c1cc2c(s1)N=C(c1ccccc1)N(C)P2(=O)N1CCOCC1 (centres undefined)	inactive: -10.3%
CCC(=O)N1C2C3N(C(=O)CC)C1C1N(C(=O)CC)C(C(N1C(=O)CC)N3C(=O)CC)N2C(=O)CC	inactive: -9.24%
O=C(OC1CN2CCC1CC2)c1ccccc1 (centres undefined)	inactive: -3.93%
O=P1(N(CCCl)CCCl)OCCC2CCCCN21 (centres undefined)	inactive: -7.46%
O=C(NC1CCS(=O)(=O)C1)NP(=S)(Oc1ccccc1)Oc1ccccc1 (centres undefined)	inactive: 23.2%
CCNC(=S)/N=C(\N)N[N+](=O)[O-]	inactive: 13.6%
Cc1ccc(NP(=O)(Oc2cccc(C)c2)Oc2cccc(C)c2)nc1	inactive: 2.99%
c1ccc(-c2nn[nH]n2)c(-c2nn[nH]n2)c1	inactive: 4.09%
CC(=O)Nc1ccc(Oc2c([N+](=O)[O-])cc([N+](=O)[O-])cc2[N+](=O)[O-])cc1	inactive: -5.35%
CC(=O)Nc1ccc([As](=O)(O)O)c(O)c1	inactive: -3.12%
COC(=O)C1(C)COP(=O)(NCc2ccccc2)OC1 (centres undefined)	inactive: -13.4%
CC(=O)c1ccc(N2CC2c2ccncc2)cc1 (centres undefined)	inactive: -0.702%
N#C/C(=C\c1ccc(N(CCBr)CCBr)cc1)C(N)=O	inactive: -5.95%
C[C@H]1OP(=O)(Oc2ccccc2)C[C@@H]2O[C@@H]21 (some centres undefined)	inactive: -0.626%

Reference: PubChem BioAssay AID651636 (Sanford-Burnham Center for Chemical Genomics, 2012)
